Chains of the proteins cited; added tags and fusions are not shown. Residues count along the entry.
UniProt O60894, 27-148: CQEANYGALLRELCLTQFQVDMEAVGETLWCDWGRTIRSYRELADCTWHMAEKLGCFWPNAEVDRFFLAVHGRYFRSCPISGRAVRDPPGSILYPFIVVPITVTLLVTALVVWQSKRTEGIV
UniProt Q16602, 23-461: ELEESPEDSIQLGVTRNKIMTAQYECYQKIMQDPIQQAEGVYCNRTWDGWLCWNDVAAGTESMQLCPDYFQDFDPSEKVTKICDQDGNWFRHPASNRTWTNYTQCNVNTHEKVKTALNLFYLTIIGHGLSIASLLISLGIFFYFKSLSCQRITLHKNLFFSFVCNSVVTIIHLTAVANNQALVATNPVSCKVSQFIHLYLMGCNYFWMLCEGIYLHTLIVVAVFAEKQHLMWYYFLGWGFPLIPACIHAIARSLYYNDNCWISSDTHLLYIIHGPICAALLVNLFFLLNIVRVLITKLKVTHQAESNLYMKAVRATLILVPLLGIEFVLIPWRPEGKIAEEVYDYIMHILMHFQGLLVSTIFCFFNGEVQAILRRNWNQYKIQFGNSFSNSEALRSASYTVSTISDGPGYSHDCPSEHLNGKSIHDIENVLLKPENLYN

According to patent US8168592B2 (Amgen Inc., priority 2005, dated 2012):

Experiments:
CGRP1 receptor = biological target: T1, CGRP1 receptor (Homo sapiens, UniProt O60894+Q16602); experiment: in vitro CGRP1 receptor mediated cAMP assay in SK-N-MC cells; format: cell-based
T1 construct: SK-N-MC cells express CRLR and RAMP1, which form CGRP1 receptor; endogenous in cells; host or cells: SK-N-MC human neuroblastoma cells
Method: The in vitro cAMP assay employed a human neuroblastoma-derived cell line (SK-N-MC). SK-N-MC cells express CRLR and RAMP1, which form CGRP1 receptor. CGRP1 receptor is a G-protein coupled receptor linked to the stimulatory G-protein, Gs. […] Briefly, two days before the assay, the cells were plated in 96-well plates in growth medium. On the day of the assay cells were rinsed with PBS followed by the addition of 60 μl of plasma free medium for 15 minutes at room temperature. […] The medium was then removed and the cells were lysed with 100 μl lysis buffer for 30 minutes at 37° C. for 30 minutes. Using a Tropix ELISA kit (Applied Biosystems, Foster City, Calif.), a cAMP-AP conjugate was diluted (1:100) and added (30 μl) to each well of a 96-well ELISA plate. An aliquot of the lysis buffer from the cell plate was then added to the ELISA plate followed by an aliquot of the cAMP antibody. This mixture was incubated for 1 hour at room temperature with gentle shaking. The ELISA plate was then washed 6× with wash buffer followed by the additions of a substrate enhancer. This mixture was incubated for 30 minutes at room temperature and then read on a MicroBeta Jet or EnVision plate reader. The results were analyzed using Prism (GraphPad).

[1] = in vitro stability in 10% rat plasma, LC-MS/MS; format: in vitro ADME; conditions: room temperature
Method: (§1) Consequently, the stability of select, non-PEGylated analogs was evaluated in vitro in the presence of 10% rat or human plasma. Briefly, samples of each peptide were diluted to 100 ng/ml into PBS containing 10% of rat or human plasma. Each sample was then incubated at room temperature and analyzed by LC-MS/MS to quantitate the intact peptide remaining at select time points over 6 hours.
(§2) The CGRP peptide analogs tested were the di-substituted (R11hR/R18hR) analog (Table 7, SEQ ID NO:25), the di-substituted (R11Cit/R18Cit) analog (Table 7, SEQ ID NO:31), the di-substituted (R11Q/R18Q) analog (Table 7, SEQ ID NO:39), the mono-substituted (R18Q) analog (Table 7, SEQ ID NO:37) and as a control, the un-substituted (R11/R18) analog (Table 4, SEQ ID NO:7).

[2] = biological target: T2, CGRP1 receptor (human neuroblastoma cell (SK-N-MC) membrane) (Homo sapiens, UniProt O60894+Q16602); experiment: CGRP1 binding assay (125I-hαCGRP displacement); conditions: Table 3A
T2 construct: human neuroblastoma cell (SK-N-MC) membrane suspension; purchased PerkinElmer; host or cells: SK-N-MC human neuroblastoma cell membranes (endogenous receptor)
Method: CGRP1 binding experiments. […] The plates were incubated at room temperature for 2 hour with shaking at 60 rpm, then the contents of each well were filtered over 0.5% polyethyleneimine (PEI)-treated (at least one hour) GF/C 96-well filter plates. The GF/C filter plates were washed 6 times with ice-cold 50 mM Tris, pH 7.5 and dried in an oven at 55 C for 1 hour. The bottoms of the GF/C plates were then sealed, and 40 μl Microscint™ 20 was added to each well, then the tops of the GF/C plates were sealed with TopSeal™-A, a press-on adhesive sealing film, and the GF/C plates were counted with TopCount NXT (Packard). The data were analyzed by using ActivityBase (IDBS) or Prizm (GraphPad) software.

[3] = solubility in aqueous conjugation buffers; format: physicochemical
Method: Co-solvent mediated conjugation of vehicle to CGRP peptide antagonists. […] In an attempt to better solubilize these less soluble peptides during the conjugation reaction, and thereby improve conjugate yields, a variety of alcohol co-solvents were tested in the conjugation reaction.

[4] = in vitro stability in 10% human plasma, LC-MS/MS; format: in vitro ADME; conditions: room temperature
Method: as §1, §2

[5] = Table 2C, unconjugated peptide, read-out: Peptide IC50
[6] = read-out: time at which 50% remains (converted)

SMILES: CC(=O)N[C@@H](Cc1c[nH]c2ccccc12)C(=O)N[C@H](C(=O)N[C@H](C(=O)N[C@@H](Cc1cnc[nH]1)C(=O)N[C@@H](CCCNC(N)=O)C(=O)N[C@@H](CC(C)C)C(=O)N[C@@H](C)C(=O)NCC(=O)N[C@@H](CC(C)C)C(=O)N[C@@H](CC(C)C)C(=O)N[C@@H](CO)C(=O)N[C@@H](CCCNC(N)=O)C(=O)N[C@@H](CO)C(=O)NCC(=O)NCC(=O)N[C@H](C(=O)N[C@H](C(=O)N[C@@H](CCCN=C(N)N)C(=O)N[C@@H](CCCCN)C(=O)N[C@@H](CC(N)=O)C(=O)N[C@@H](Cc1ccccc1)C(=O)N[C@H](C(=O)N1CCC[C@H]1C(=O)N[C@H](C(=O)N[C@@H](CC(=O)O)C(=O)N[C@H](C(=O)NCC(=O)N1CCC[C@H]1C(=O)N[C@@H](Cc1ccccc1)C(=O)N[C@@H](C)C(=O)N[C@@H](Cc1ccccc1)C(N)=O)C(C)C)[C@@H](C)O)C(C)C)C(C)C)C(C)C)[C@@H](C)O)C(C)C [compound 31]
pIC50 (CGRP1 receptor; Table 7, R11 and/or R18 stability analogs, with or without 20 kDa PEG, read-out: IC50): 8.74 | % Remaining ([1]; 100 ng/ml, 0 h): 100.0% | remaining at 0.5 h, 100 ng/ml ([1]; 100 ng/ml, 0.5 h): 82.3% | remaining at 1 h, 100 ng/ml ([1]; 100 ng/ml, 1 h): 59% | remaining at 2 h, 100 ng/ml ([1]; 100 ng/ml, 2 h): 26.1% | remaining at 3 h, 100 ng/ml ([1]; 100 ng/ml, 3 h): 18.5% | remaining at 4 h, 100 ng/ml ([1]; 100 ng/ml, 4 h): 10.1% | remaining at 5 h, 100 ng/ml ([1]; 100 ng/ml, 5 h): 5.2% | remaining at 6 h, 100 ng/ml ([1]; 100 ng/ml, 6 h): 3.3% | pKi [2]: 9.34

SMILES: CC(=O)N[C@@H](Cc1c[nH]c2ccccc12)C(=O)N[C@H](C(=O)N[C@H](C(=O)N[C@@H](Cc1cnc[nH]1)C(=O)N[C@@H](CCCNC(N)=O)C(=O)N[C@@H](CC(C)C)C(=O)N[C@@H](C)C(=O)NCC(=O)N[C@@H](CC(C)C)C(=O)N[C@@H](CC(C)C)C(=O)N[C@@H](CO)C(=O)N[C@@H](CCCNC(N)=O)C(=O)N[C@@H](CO)C(=O)NCC(=O)NCC(=O)N[C@H](C(=O)N[C@H](C(=O)N[C@@H](CCCN=C(N)N)C(=O)N[C@@H](CCCCN)C(=O)N[C@@H](CC(N)=O)C(=O)N[C@@H](Cc1ccccc1)C(=O)N[C@H](C(=O)N1CCC[C@H]1C(=O)N[C@H](C(=O)N[C@@H](CC(=O)O)C(=O)N[C@H](C(=O)NCC(=O)N1CCC[C@H]1C(=O)N[C@@H](Cc1ccccc1)C(=O)N[C@@H](C)C(=O)N[C@@H](Cc1ccccc1)C(N)=O)C(C)C)[C@@H](C)O)C(C)C)C(C)C)C(C)C)[C@@H](C)O)C(C)C [SEQ ID NO: 31]
solubility in words [3]: relatively insoluble | % Remaining ([4]; 100 ng/ml, 0 h): 100.0% | remaining at 0.17 h, 100 ng/ml ([4]; 100 ng/ml, 0.17 h): 73% | remaining at 0.5 h, 100 ng/ml ([4]; 100 ng/ml, 0.5 h): 52.8% | remaining at 1 h, 100 ng/ml ([4]; 100 ng/ml, 1 h): 44% | remaining at 2 h, 100 ng/ml ([4]; 100 ng/ml, 2 h): 34.9% | remaining at 3 h, 100 ng/ml ([4]; 100 ng/ml, 3 h): 15.3% | remaining at 4 h, 100 ng/ml ([4]; 100 ng/ml, 4 h): 11.8% | remaining at 5 h, 100 ng/ml ([4]; 100 ng/ml, 5 h): 6.1% | remaining at 6 h, 100 ng/ml ([4]; 100 ng/ml, 6 h): 5.9%

SMILES: CC(=O)N[C@@H](Cc1c[nH]c2ccccc12)C(=O)N[C@H](C(=O)N[C@H](C(=O)N[C@@H](Cc1cnc[nH]1)C(=O)N[C@@H](CCCNC(N)=O)C(=O)N[C@@H](CC(C)C)C(=O)N[C@@H](C)C(=O)NCC(=O)N[C@@H](CC(C)C)C(=O)N[C@@H](CC(C)C)C(=O)N[C@@H](CO)C(=O)N[C@@H](CCCNC(N)=O)C(=O)N[C@@H](CO)C(=O)NCC(=O)NCC(=O)N[C@H](C(=O)N[C@H](C(=O)N[C@@H](CCCN=C(N)N)C(=O)N[C@@H](CCCCN)C(=O)N[C@@H](CC(N)=O)C(=O)N[C@@H](Cc1ccccc1)C(=O)N[C@H](C(=O)N1CCC[C@H]1C(=O)N[C@H](C(=O)N[C@@H](CC(=O)O)C(=O)N[C@H](C(=O)NCC(=O)N1CCC[C@H]1C(=O)N[C@@H](Cc1ccccc1)C(=O)N[C@@H](C)C(=O)N[C@@H](Cc1ccccc1)C(N)=O)C(C)C)[C@@H](C)O)C(C)C)C(C)C)C(C)C)[C@@H](C)O)C(C)C [SEQ ID NO:31]
time at which about 10% of the starting concentration remains [4]: about 4 hours | half-life at 100 ng/ml [4, 6]: ~1 h | reduced antagonist activity relative to the single-substitution analogs (CGRP1 receptor; non-PEGylated double substitution at R11 and R18): about 3 fold | time at which about 10% of the starting concentration remains [1]: about 5 hours | half-life at 100 ng/ml [1, 6]: ~1.5 h

Other lines, results leading:

pIC50 (CGRP1 receptor; [5]): 8.74
SMILES: CC(=O)N[C@@H](Cc1c[nH]c2ccccc12)C(=O)N[C@H](C(=O)N[C@H](C(=O)N[C@@H](Cc1cnc[nH]1)C(=O)N[C@@H](CCCNC(N)=O)C(=O)N[C@@H](CC(C)C)C(=O)N[C@@H](C)C(=O)NCC(=O)N[C@@H](CC(C)C)C(=O)N[C@@H](CC(C)C)C(=O)N[C@@H](CO)C(=O)N[C@@H](CCCNC(N)=O)C(=O)N[C@@H](CO)C(=O)NCC(=O)NCC(=O)N[C@H](C(=O)N[C@H](C(=O)N[C@@H](CCCN=C(N)N)C(=O)N[C@@H](CCCCN)C(=O)N[C@@H](CC(N)=O)C(=O)N[C@@H](Cc1ccccc1)C(=O)N[C@H](C(=O)N1CCC[C@H]1C(=O)N[C@H](C(=O)N[C@@H](CC(=O)O)C(=O)N[C@H](C(=O)NCC(=O)N1CCC[C@H]1C(=O)N[C@@H](Cc1ccccc1)C(=O)N[C@@H](C)C(=O)N[C@@H](Cc1ccccc1)C(N)=O)C(C)C)[C@@H](C)O)C(C)C)C(C)C)C(C)C)[C@@H](C)O)C(C)C [compound 863]

pIC50 (CGRP1 receptor; Table 2D, read-out: IC50): 8.77
SMILES: CC(=O)N[C@@H](Cc1c[nH]c2ccccc12)C(=O)N[C@H](C(=O)N[C@H](C(=O)N[C@@H](Cc1cnc[nH]1)C(=O)N[C@@H](CCCNC(N)=O)C(=O)N[C@@H](CC(C)C)C(=O)N[C@@H](C)C(=O)NCC(=O)N[C@@H](CC(C)C)C(=O)N[C@@H](CC(C)C)C(=O)N[C@@H](CO)C(=O)N[C@@H](CCCNC(N)=O)C(=O)N[C@@H](CO)C(=O)NCC(=O)NCC(=O)N[C@H](C(=O)N[C@H](C(=O)N[C@@H](CCCN=C(N)N)C(=O)N[C@@H](CCCCN)C(=O)N[C@@H](CC(N)=O)C(=O)N[C@@H](Cc1ccccc1)C(=O)N[C@H](C(=O)N1CCC[C@H]1C(=O)N[C@H](C(=O)N[C@@H](CC(=O)O)C(=O)N[C@H](C(=O)NCC(=O)N1CCC[C@H]1C(=O)N[C@@H](Cc1ccccc1)C(=O)N[C@@H](C)C(=O)N[C@@H](Cc1ccccc1)C(N)=O)C(C)C)[C@@H](C)O)C(C)C)C(C)C)C(C)C)[C@@H](C)O)C(C)C [compound 790]

pIC50 (CGRP1 receptor; [5]): 9.01
SMILES: CC(=O)N[C@@H](Cc1c[nH]c2ccccc12)C(=O)N[C@H](C(=O)N[C@H](C(=O)N[C@@H](Cc1c[nH]cn1)C(=O)N[C@@H](CCCNC(N)=O)C(=O)N[C@@H](CC(C)C)C(=O)N[C@@H](C)C(=O)NCC(=O)N[C@@H](CC(C)C)C(=O)N[C@@H](CC(C)C)C(=O)N[C@@H](CO)C(=O)N[C@@H](CCCNC(N)=O)C(=O)N[C@@H](CO)C(=O)NCC(=O)NCC(=O)N[C@H](C(=O)N[C@H](C(=O)N[C@@H](Cc1ccc(NC(=N)N)cc1)C(=O)N[C@@H](CCCCN)C(=O)N[C@@H](CC(N)=O)C(=O)N[C@@H](Cc1ccccc1)C(=O)N[C@H](C(=O)N1CCC[C@H]1C(=O)N[C@H](C(=O)N[C@@H](CC(=O)O)C(=O)N[C@H](C(=O)NCC(=O)N1CCC[C@H]1C(=O)N[C@@H](Cc1ccccc1)C(=O)N[C@@H](C)C(=O)N[C@@H](Cc1ccccc1)C(N)=O)C(C)C)[C@@H](C)O)C(C)C)C(C)C)C(C)C)[C@@H](C)O)C(C)C [compound 939]

pIC50, pKi: −log10 of the molar value. Like-named read-outs stand apart in the source and are kept apart here. Each block holds one molecule with its values, some of them ahead of it.
